Reference: patent US4665224A, “Ester of (+) 6-methoxy-α-methyl-2-naphthalene acetic acid having mucosecretolytic, anti-inflammatory, analgesic, antipyretic activity, a process for its preparation and pharmaceutical compositions thereof” (priority 1984, dated 1987)

System: mouse
Details: in vivo, po
Experimental: Method for studying the lethal dose 50 (LD50) in the mouse after a single administration.
Groups of 10 Swiss albine, female, adult mice (20-22 grams of body weight) fasting from the evening preceding the test, are treated orally with varying doses of the test drup suspended into hydroxyethylcellulose (0.5% w/v.)
Thereafter, the animals are fed again.

COc1ccc2cc([C@H](C)C(=O)OCC3=CCC(C(C)(C)O)CC3)ccc2c1 (single isomer, unassigned; (+)) [CO/1446]
toxicity ratio versus (+)6-methoxy-α-methyl-2-naphthalene acetic acid: more favourable toxicity ratio
